Measurements: article PMC6367340, “Novel insights into P450 BM3 interactions with FDA-approved antifungal azole drugs” (Scientific Reports, 2019)

Protein sequences, listed by entry. Tags and fused reporters are not part of them. Residues count along the entry.
UniProt P14779, 2-472 A83F/F88V: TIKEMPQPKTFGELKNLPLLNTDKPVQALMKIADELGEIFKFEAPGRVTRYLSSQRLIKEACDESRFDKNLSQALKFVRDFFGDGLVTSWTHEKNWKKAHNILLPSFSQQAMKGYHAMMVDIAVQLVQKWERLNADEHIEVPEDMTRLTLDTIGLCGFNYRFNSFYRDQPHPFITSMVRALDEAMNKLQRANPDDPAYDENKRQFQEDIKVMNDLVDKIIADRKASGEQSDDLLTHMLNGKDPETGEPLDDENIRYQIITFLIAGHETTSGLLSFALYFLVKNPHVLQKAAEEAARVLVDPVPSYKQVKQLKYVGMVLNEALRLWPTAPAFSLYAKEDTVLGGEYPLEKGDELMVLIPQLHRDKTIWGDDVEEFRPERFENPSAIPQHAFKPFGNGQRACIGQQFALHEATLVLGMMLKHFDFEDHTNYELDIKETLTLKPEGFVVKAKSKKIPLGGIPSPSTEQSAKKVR
UniProt P14779, 2-472: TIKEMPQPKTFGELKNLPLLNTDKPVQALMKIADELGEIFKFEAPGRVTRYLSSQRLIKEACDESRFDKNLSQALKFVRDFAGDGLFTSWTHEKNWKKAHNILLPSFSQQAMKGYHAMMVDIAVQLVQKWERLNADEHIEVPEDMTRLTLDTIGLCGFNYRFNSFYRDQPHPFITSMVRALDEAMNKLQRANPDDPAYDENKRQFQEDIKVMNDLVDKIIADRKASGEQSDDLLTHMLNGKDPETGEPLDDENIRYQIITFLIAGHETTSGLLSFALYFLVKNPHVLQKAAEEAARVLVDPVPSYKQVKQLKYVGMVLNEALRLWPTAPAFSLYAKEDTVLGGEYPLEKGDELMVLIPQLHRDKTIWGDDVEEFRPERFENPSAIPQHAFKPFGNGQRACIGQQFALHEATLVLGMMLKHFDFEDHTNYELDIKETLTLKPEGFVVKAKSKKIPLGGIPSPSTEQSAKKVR

Key:
[1] = target: T1, BM3 A82F/F87V double mutant (DM) heme domain (Priestia megaterium, UniProt P14779, A83F/F88V); assay type: binding, Bacillus megaterium
T1 construct: The BM3 heme domain proteins (WT and the DM A82F/F87V variant) used in this study were expressed as described in our previous studies; made in house; host or cells: E. coli BL21 (DE3)
Excerpt: (§1) This leads to dioxygen (O2) binding to heme iron and to the progression of the P450 catalytic cycle that leads to monooxygenation of the substrate. […] P450 UV-visible binding assays and other spectroscopic studies using azoles are often hindered by the low solubility of many of these drugs. […] The azoles used range widely in size and structure, and contain either an imidazole or a triazole functional group (or two triazole groups in the case of fluconazole). […] Spectral binding data were fitted using hyperbolic (Michaelis-Menten)[30] or tight-binding (Morrison)[31] equations, or by using the Hill function[32] in cases where there was a clear sigmoidal dependence of heme absorbance change on azole drug concentration.
(§2) Experiments were performed using a Cary 50 UV-Visible spectrophotometer (Agilent Technologies Ltd). WT and DM heme domains at concentrations of ~2–4 μM were used, and binding titrations were done by the addition of small (typically 0.2–0.4 μL) volumes of azole ligand stocks (1, 10 or 30 mM, to minimize amounts of solvent carrier used) to a 1 mL heme domain sample in a quartz cuvette. An extinction coefficient of 95 mM^−1 cm^−1 was used for the low-spin forms of the WT and DM heme domains. […] Azole drugs were obtained from Merck Chemicals (Nottingham, UK). All azole compounds used in these and other experiments done in this manuscript were sourced from Sigma Aldrich (Cambridge, UK).
(§3) Data were processed by the subtraction of the spectrum of each successive ligand-bound form (from a specific titration set) from the spectrum of the ligand-free enzyme. This produced a set of difference spectra (for each particular azole titration), from which wavelengths associated with the absorbance minimum (Amin) and maximum (Amax) were readily identified. For each titration point, an absorbance difference value was calculated as Amax minus Amin, using the same wavelength pair throughout an individual experiment. These values were then plotted against the relevant azole ligand concentrations used. […] Assays were done using 25 mM KPi (pH 7) at a constant temperature of 30 °C.

[2] = target: T2, WT BM3 heme domain (Priestia megaterium, UniProt P14779); assay type: binding, Bacillus megaterium
T2 construct: The BM3 heme domain proteins (WT and the DM A82F/F87V variant) used in this study were expressed as described in our previous studies; made in house; host or cells: E. coli BL21 (DE3)
Excerpt: as §1, §2, §3

[3] = maximal peak-minus-trough value divided by P450 Soret peak value

Clc1ccc(COC(Cn2ccnc2)c2ccc(Cl)cc2Cl)cc1 (centres unmarked) [Econazole nitrate]
Delta Abs Peak (wavelength maximum of absorbance difference spectrum) [1]: 435 nm | Delta Abs Trough (wavelength minimum of absorbance difference spectrum) [1]: 414 nm | Delta Abs/Soret Peak [1, 3]: 0.47 | Soret Shift (final Soret wavelength at apparent saturation) ([1]; starting wavelength 418 nm): 423 nm | Delta Abs Peak (wavelength maximum of absorbance difference spectrum) [2]: 434 nm | Delta Abs Trough (wavelength minimum of absorbance difference spectrum) [2]: 413 nm | Delta Abs/Soret Peak [2, 3]: 0.27 | Soret Shift (final Soret wavelength at apparent saturation) ([2]; starting wavelength 418 nm): 421 nm
